Measurements taken from PubChem BioAssay (NCI).
Only a part is listed here, and it is no random draw.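 A percent growth of 40 corresponds to 60% growth inhibition; 0 means no net growth; -100 means all cells died. Active threshold: below 10.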 Activity calls are given as the source filed them.

Columns and labels:
Assay in all cases: NCI-60 one-dose screen, 48 h (100 = growth as untreated, 0 = no growth, -100 = all killed)
Conditions in all cases: 10 µM unless noted
MOLT-4 leukemia = test system: MOLT-4 leukemia
RPMI-8226 leukemia = test system: RPMI-8226 leukemia
OVCAR-8 ovarian = test system: OVCAR-8 ovarian
OVCAR-5 ovarian = test system: OVCAR-5 ovarian
OVCAR-4 ovarian = test system: OVCAR-4 ovarian
SK-OV-3 ovarian = test system: SK-OV-3 ovarian
IGROV1 ovarian = test system: IGROV1 ovarian
OVCAR-3 ovarian = test system: OVCAR-3 ovarian
HS 578T breast = test system: HS 578T breast
NCI/ADR-RES ovarian = test system: NCI/ADR-RES ovarian
BT-549 breast = test system: BT-549 breast
MDA-MB-435 melanoma = test system: MDA-MB-435 melanoma
SW-620 colon = test system: SW-620 colon
MCF7 breast = test system: MCF7 breast
HCT-116 colon = test system: HCT-116 colon
HCC-2998 colon = test system: HCC-2998 colon
KM12 colon = test system: KM12 colon
T-47D breast = test system: T-47D breast
SR leukemia = test system: SR leukemia

Measured: growth

C=CCOP(O)OCC=C
inactive: MOLT-4 leukemia 113% | RPMI-8226 leukemia 100% | OVCAR-8 ovarian 105% | OVCAR-5 ovarian 107% | OVCAR-4 ovarian 102% | SK-OV-3 ovarian 101% | IGROV1 ovarian 112% | OVCAR-3 ovarian 117% | HS 578T breast 101% | NCI/ADR-RES ovarian 115% | BT-549 breast 112% | MDA-MB-435 melanoma 104% | SW-620 colon 101% | MCF7 breast 96.5% | HCT-116 colon 104% | HCC-2998 colon 124% | KM12 colon 103%

COC(=O)C1(C)COP(=O)(Nc2ccccc2)OC1 (configuration not stated)
inactive: MOLT-4 leukemia 75.8% | OVCAR-8 ovarian 104% | OVCAR-5 ovarian 108% | OVCAR-4 ovarian 109% | SK-OV-3 ovarian 97.4% | IGROV1 ovarian 98.2% | OVCAR-3 ovarian 107% | HS 578T breast 96.9% | NCI/ADR-RES ovarian 100% | T-47D breast 91.9% | BT-549 breast 102% | MDA-MB-435 melanoma 105% | SW-620 colon 102% | MCF7 breast 103% | HCT-116 colon 99.5% | HCC-2998 colon 107% | KM12 colon 96.2%

Nc1ccc([As](=O)(O)c2ccc([N+](=O)[O-])cc2)cc1
inactive: MOLT-4 leukemia 89.2% | RPMI-8226 leukemia 90.5% | OVCAR-8 ovarian 110% | OVCAR-5 ovarian 80.9% | OVCAR-4 ovarian 109% | SK-OV-3 ovarian 107% | IGROV1 ovarian 140% | OVCAR-3 ovarian 102% | HS 578T breast 102% | NCI/ADR-RES ovarian 84.1% | T-47D breast 91.7% | BT-549 breast 117% | MDA-MB-435 melanoma 107% | SW-620 colon 107% | MCF7 breast 105% | HCT-116 colon 102% | HCC-2998 colon 131% | KM12 colon 103%

S=P1(S)SC(Nc2ccccc2)CN1c1ccccc1 (configuration not stated)
inactive: MOLT-4 leukemia 104% | RPMI-8226 leukemia 99.3% | OVCAR-8 ovarian 105% | OVCAR-5 ovarian 98.9% | OVCAR-4 ovarian 111% | SK-OV-3 ovarian 100% | IGROV1 ovarian 102% | OVCAR-3 ovarian 113% | HS 578T breast 103% | NCI/ADR-RES ovarian 104% | T-47D breast 101% | BT-549 breast 115% | MDA-MB-435 melanoma 107% | SW-620 colon 103% | MCF7 breast 95.4% | HCT-116 colon 103% | HCC-2998 colon 111% | KM12 colon 100%

O=[N+]([O-])c1ccc(Nc2ccc(Oc3ccc([N+](=O)[O-])cc3[N+](=O)[O-])cc2)c([N+](=O)[O-])c1
inactive: SR leukemia 27.5% | RPMI-8226 leukemia 35.5% | OVCAR-8 ovarian 80.4% | OVCAR-5 ovarian 113% | OVCAR-4 ovarian 51.4% | SK-OV-3 ovarian 87.8% | IGROV1 ovarian 81.8% | OVCAR-3 ovarian 90.1% | HS 578T breast 98.4% | NCI/ADR-RES ovarian 66.9% | T-47D breast 65.7% | BT-549 breast 46.7% | MDA-MB-435 melanoma 54% | SW-620 colon 73% | MCF7 breast 76.2% | HCT-116 colon 67.1% | HCC-2998 colon 87.5% | KM12 colon 81.5%

COP(=O)(OC)N(CCCl)CCCl
inactive: MOLT-4 leukemia 50.9% | RPMI-8226 leukemia 97.5% | OVCAR-8 ovarian 99.4% | OVCAR-5 ovarian 102% | OVCAR-4 ovarian 94.1% | SK-OV-3 ovarian 101% | IGROV1 ovarian 97.1% | OVCAR-3 ovarian 110% | HS 578T breast 112% | NCI/ADR-RES ovarian 108% | T-47D breast 107% | BT-549 breast 109% | MDA-MB-435 melanoma 104% | SW-620 colon 107% | MCF7 breast 93.9% | HCT-116 colon 112% | KM12 colon 113%

Cc1ccccc1OP(=O)(Cl)Oc1ccccc1C
inactive: MOLT-4 leukemia 88.9% | SR leukemia 86.8% | OVCAR-8 ovarian 105% | OVCAR-5 ovarian 104% | SK-OV-3 ovarian 97.5% | IGROV1 ovarian 96.5% | OVCAR-3 ovarian 118% | HS 578T breast 119% | NCI/ADR-RES ovarian 112% | T-47D breast 93.7% | BT-549 breast 113% | MDA-MB-435 melanoma 105% | SW-620 colon 107% | MCF7 breast 95.8% | HCT-116 colon 98.9% | HCC-2998 colon 117% | KM12 colon 110%

Nc1ccc([As](=O)(O)c2ccc(N)cc2)cc1
inactive: MOLT-4 leukemia 125% | RPMI-8226 leukemia 99.3% | OVCAR-8 ovarian 100% | OVCAR-5 ovarian 101% | OVCAR-4 ovarian 118% | SK-OV-3 ovarian 100% | IGROV1 ovarian 84.5% | OVCAR-3 ovarian 103% | HS 578T breast 144% | NCI/ADR-RES ovarian 85.6% | T-47D breast 97.7% | BT-549 breast 124% | MDA-MB-435 melanoma 104% | SW-620 colon 94.8% | MCF7 breast 92% | HCT-116 colon 93.5% | HCC-2998 colon 96.5% | KM12 colon 103%

CCOC(=O)Nc1cccc([As](=O)(O)O)c1
inactive: MOLT-4 leukemia 95% | SR leukemia 97.2% | OVCAR-8 ovarian 101% | OVCAR-5 ovarian 125% | OVCAR-4 ovarian 97.6% | SK-OV-3 ovarian 101% | OVCAR-3 ovarian 92.9% | HS 578T breast 94.5% | NCI/ADR-RES ovarian 116% | T-47D breast 95.9% | BT-549 breast 95.3% | MDA-MB-435 melanoma 107% | SW-620 colon 92.5% | MCF7 breast 92.3% | HCT-116 colon 91.9% | HCC-2998 colon 112% | KM12 colon 96.4%
